The OPERA property sets (Mansouri et al. 2018)

CN(C)[N+](=O)[O-]
log10 OH rate constant (cm³/molecule/s): -11.4
